Chains of the proteins cited; added tags and fusions are not shown. Residues count along the entry.
UniProt P37231, 234-505 limits assumed: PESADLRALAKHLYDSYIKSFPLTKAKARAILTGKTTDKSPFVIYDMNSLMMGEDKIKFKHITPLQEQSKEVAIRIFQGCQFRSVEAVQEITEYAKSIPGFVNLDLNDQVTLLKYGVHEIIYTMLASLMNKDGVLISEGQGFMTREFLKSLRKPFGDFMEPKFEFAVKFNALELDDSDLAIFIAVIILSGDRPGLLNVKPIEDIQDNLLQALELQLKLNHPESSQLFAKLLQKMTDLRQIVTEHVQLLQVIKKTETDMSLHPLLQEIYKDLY

In patent US12606541B2, “PPARg modulators and methods of use” (Eisai R&D Management Co., Ltd., priority 2020, dated 2026):

Tests used:
UM-UC-9 engineered cells = test: Cell proliferation / short-term viability assay, CellTiter-Glo 144 h; settings: read-out: CTGlo 144 h UMUC9.5, G150
His6-TEV-PPARγ-(234-505) = His6-TEV-PPARγ-(234-505) (Homo sapiens, UniProt P37231); test: TR-FRET Assay to Measure Co-R Peptide Recruitment to PPARγ; settings: read-out: TR-FRET i-Ag, Co-R peptide (SMRT-ID2) recruitment, top final concentration 20 μM

SMILES | IC50 (UM-UC-9 engineered cells) | AC50 (His6-TEV-PPARγ-(234-505))
COc1cc(-c2cc(C(=O)N3CC[C@H](C(=O)NC4CCC(C(F)(F)F)N(C)C4)CC34CC4)n[nH]2)c(F)cn1 (single isomer, unassigned) [Example 321-B] | 28.9 nM | 12.3 nM
COc1cc(-c2cc(C(=O)N3CC[C@H](C(=O)NC4CCC(C(F)(F)F)N(C)C4)CC34CC4)n[nH]2)c(F)cn1 (single isomer, unassigned) [Example 321-C] | 130 nM | 39.8 nM
COc1cc(-c2cc(C(=O)N3CC[C@H](C(=O)NC4CCC(C(F)(F)F)N(C)C4)CC34CC4)n[nH]2)c(F)cn1 (single isomer, unassigned) [Example 321-D] | 62.2 nM | 42.6 nM
COc1cc(-c2cc(C(=O)N3CC[C@@H](C(=O)NC4CCC(C(F)(F)F)N(C)C4)CC34CC4)n[nH]2)c(F)cn1 (single isomer, unassigned) [Example 322-A] | 138 nM | 338 nM
COc1cc(-c2cc(C(=O)N3CC[C@@H](C(=O)NC4CCC(C(F)(F)F)N(C)C4)CC34CC4)n[nH]2)c(F)cn1 (single isomer, unassigned) [Example 322-B] | 670 nM | 436 nM
COc1cc(-c2cc(C(=O)N3CC[C@@H](C(=O)NC4CCC(C(F)(F)F)N(C)C4)CC34CC4)n[nH]2)c(F)cn1 (single isomer, unassigned) [Example 322-C] | > 4000 nM | 3200 nM
CCO[C@]1(C(F)(F)F)CC[C@@H](NC(=O)C2CCN(C(=O)c3cc(-c4cc(C)ncc4F)[nH]n3)C3(CC3)C2)CC1 (single isomer, unassigned) [Example 323-A] | 542 nM | 244 nM
CCO[C@]1(C(F)(F)F)CC[C@@H](NC(=O)C2CCN(C(=O)c3cc(-c4cc(C)ncc4F)[nH]n3)C3(CC3)C2)CC1 (single isomer, unassigned) [Example 323-B] | 2.3 nM | 6.7 nM
COc1cc(-c2cc(C(=O)N3CCC(C(=O)N[C@H]4CC[C@@](OC)(C(F)(F)F)CC4)CC34CC4)n[nH]2)c(F)cn1 (single isomer, unassigned) [Example 324-A] | 54.7 nM | 70.2 nM
COc1cc(-c2cc(C(=O)N3CCC(C(=O)N[C@H]4CC[C@@](OC)(C(F)(F)F)CC4)CC34CC4)n[nH]2)c(F)cn1 (single isomer, unassigned) [Example 324-B] | 0.6 nM | 1.5 nM
COc1cc(-c2cc(C(=O)N3CC[C@H](C(=O)NC4CCC5(CCO5)CC4)CC34CC4)n[nH]2)c(F)cn1 (single isomer, unassigned) [Example 325-A] | 2890 nM | 187 nM
COc1cc(-c2cc(C(=O)N3CC[C@H](C(=O)NC4CCC5(CCO5)CC4)CC34CC4)n[nH]2)c(F)cn1 (single isomer, unassigned) [Example 325-B] | 113 nM | 150 nM
COc1cc(-c2cc(C(=O)N3[C@@H]4CC[C@H]3C[C@H](C(=O)NC3CCC(C(F)(F)F)N(CC(C)(C)F)C3)C4)n[nH]2)c(F)cn1 (single isomer, unassigned) [Example 326-A] | 93.2 nM | 88.5 nM
COc1cc(-c2cc(C(=O)N3[C@@H]4CC[C@H]3C[C@H](C(=O)NC3CCC(C(F)(F)F)N(CC(C)(C)F)C3)C4)n[nH]2)c(F)cn1 (single isomer, unassigned) [Example 326-B] | 1310 nM | 485 nM
COc1cc(-c2cc(C(=O)N3[C@@H]4CC[C@H]3C[C@H](C(=O)NC3CCC(C(F)(F)F)N(CC(C)(C)F)C3)C4)n[nH]2)c(F)cn1 (single isomer, unassigned) [Example 326-C] | 287 nM | 156 nM
COc1cc(-c2cc(C(=O)N3[C@@H]4CC[C@H]3C[C@H](C(=O)NC3CCC(C(F)(F)F)N(CC(C)(C)F)C3)C4)n[nH]2)c(F)cn1 (single isomer, unassigned) [Example 326-D] | 2890 nM | 2570 nM
COc1cc(-c2cc(C(=O)N3CCC(C(=O)NC4CCC5(CCC(=O)N5C)CC4)CC34CC4)n[nH]2)c(F)cn1 (single isomer, unassigned) [Example 327-A] | 1850 nM | 101 nM
COc1cc(-c2cc(C(=O)N3CCC(C(=O)NC4CCC5(CCC(=O)N5C)CC4)CC34CC4)n[nH]2)c(F)cn1 (single isomer, unassigned) [Example 327-B] | > 4000 nM | 15300 nM
COc1cc(-c2cc(C(=O)N3CCC(C(=O)NC4CCC5(CCC(=O)N5C)CC4)CC34CC4)n[nH]2)c(F)cn1 (single isomer, unassigned) [Example 327-C] | 2110 nM | 301 nM
COc1cc(-c2cc(C(=O)N3CCC(C(=O)NC4CCC5(CCC(=O)N5C)CC4)CC34CC4)n[nH]2)c(F)cn1 (single isomer, unassigned) [Example 327-D] | > 4000 nM | 18800 nM
CCN1C(=O)CCC12CCC(NC(=O)C1CCN(C(=O)c3cc(-c4cc(OC)ncc4F)[nH]n3)C3(CC3)C1)CC2 (single isomer, unassigned) [Example 328-A] | 685 nM | 53.4 nM
CCN1C(=O)CCC12CCC(NC(=O)C1CCN(C(=O)c3cc(-c4cc(OC)ncc4F)[nH]n3)C3(CC3)C1)CC2 (single isomer, unassigned) [Example 328-B] | > 10000 nM | 3650 nM

SMILES | IC50 (UM-UC-9 engineered cells) | AC50 (His6-TEV-PPARγ-(234-505))
CCN1C(=O)CCC12CCC(NC(=O)C1CCN(C(=O)c3cc(-c4cc(OC)ncc4F)[nH]n3)C3(CC3)C1)CC2 (single isomer, unassigned) [Example 328-C] | 1820 nM | 1240 nM
CCN1C(=O)CCC12CCC(NC(=O)C1CCN(C(=O)c3cc(-c4cc(OC)ncc4F)[nH]n3)C3(CC3)C1)CC2 (single isomer, unassigned) [Example 328-D] | > 10000 nM | 1630 nM
COc1cc(-c2cc(C(=O)N3CCC(C(=O)N[C@H]4CC[C@@](OCCO)(C(F)(F)F)CC4)CC34CC4)n[nH]2)c(F)cn1 (single isomer, unassigned) [Example 330-A] | 71.7 nM | 103 nM
COc1cc(-c2cc(C(=O)N3CCC(C(=O)N[C@H]4CC[C@@](OCCO)(C(F)(F)F)CC4)CC34CC4)n[nH]2)c(F)cn1 (single isomer, unassigned) [Example 330-B] | 1.1 nM | 6.4 nM
COc1cc(-c2cc(C(=O)N3CCC(C(=O)N[C@@H]4CCN(CC(F)(F)F)C4)CC34CC4)n[nH]2)c(F)cn1 (single isomer, unassigned) [Example 331-A] | 4.2 nM | 5.7 nM
COc1cc(-c2cc(C(=O)N3CCC(C(=O)N[C@@H]4CCN(CC(F)(F)F)C4)CC34CC4)n[nH]2)c(F)cn1 (single isomer, unassigned) [Example 331-B] | 946 nM | 410 nM
COc1cc(-c2cc(C(=O)N3CCC(C(=O)N[C@H]4CCN(CC(F)(F)F)C4)CC34CC4)n[nH]2)c(F)cn1 (single isomer, unassigned) [Example 332-A] | 13.8 nM | 15.6 nM
COc1cc(-c2cc(C(=O)N3CCC(C(=O)N[C@H]4CCN(CC(F)(F)F)C4)CC34CC4)n[nH]2)c(F)cn1 (single isomer, unassigned) [Example 332-B] | 1820 nM | 680 nM
COc1cc(-c2cc(C(=O)N3CCC(C(=O)NCC45COC(C4)C5)CC34CC4)n[nH]2)c(F)cn1 (single isomer, unassigned) [Example 337-A] | 447 nM | 263 nM
COc1cc(-c2cc(C(=O)N3CCC(C(=O)NCC45COC(C4)C5)CC34CC4)n[nH]2)c(F)cn1 (single isomer, unassigned) [Example 337-B] | 8160 nM | 2080 nM
COc1cc(-c2cc(C(=O)N3CC[C@H](C(=O)NCC4CCc5nccn5C4)CC34CC4)n[nH]2)c(F)cn1 (single isomer, unassigned) [Example 356-A] | 4640 nM | 102 nM
COc1cc(-c2cc(C(=O)N3CC[C@H](C(=O)NCC4CCc5nccn5C4)CC34CC4)n[nH]2)c(F)cn1 (single isomer, unassigned) [Example 356-B] | 9560 nM | 152 nM
COc1cc(-c2cc(C(=O)N3CC[C@H](C(=O)NCC4Cn5c(nnc5C(F)(F)F)CO4)CC34CC4)n[nH]2)c(F)cn1 (single isomer, unassigned) [Example 357-A] | > 10000 nM | 317 nM
COc1cc(-c2cc(C(=O)N3CC[C@H](C(=O)NCC4Cn5c(nnc5C(F)(F)F)CO4)CC34CC4)n[nH]2)c(F)cn1 (single isomer, unassigned) [Example 357-B] | 1480 nM | 62.5 nM
COc1cc(-c2cc(C(=O)N3CC[C@H](C(=O)NC(C)c4ncccc4Cl)CC34CC4)n[nH]2)c(F)cn1 (single isomer, unassigned) [Example 360-A] | 22.6 nM | 9.2 nM
COc1cc(-c2cc(C(=O)N3CC[C@H](C(=O)NC(C)c4ncccc4Cl)CC34CC4)n[nH]2)c(F)cn1 (single isomer, unassigned) [Example 360-B] | 24.4 nM | 20 nM
COc1cc(-c2cc(C(=O)N3CC[C@H](C(=O)NC4CCOc5cccnc54)CC34CC4)n[nH]2)c(F)cn1 (single isomer, unassigned) [Example 366-A] | 62.8 nM | 45.3 nM
COc1cc(-c2cc(C(=O)N3CC[C@H](C(=O)NC4CCOc5cccnc54)CC34CC4)n[nH]2)c(F)cn1 (single isomer, unassigned) [Example 366-B] | 32.3 nM | 23.3 nM
COc1cc(-c2cc(C(=O)N3CCC(C(=O)N[C@H]4CC[C@@](O)(C(F)(F)F)CC4)C[C@@H]3C(F)(F)F)n[nH]2)c(F)cn1 (single isomer, unassigned) [Example 368-A] | 3540 nM | 1380 nM
COc1cc(-c2cc(C(=O)N3CCC(C(=O)N[C@H]4CC[C@@](O)(C(F)(F)F)CC4)C[C@@H]3C(F)(F)F)n[nH]2)c(F)cn1 (single isomer, unassigned) [Example 368-B] | 705 nM | 298 nM
COCC(F)(F)C1(O)CCC(NC(=O)[C@@H]2CCN(C(=O)c3cc(-c4cc(OC)ncc4F)[nH]n3)C3(CC3)C2)CC1 (single isomer, unassigned) [Example 369-A] | 5.4 nM | 5.4 nM
